Here are results for one compound from patent US20190350879A1, “METHOD OF TREATING PAIN USING RACEMIC MIXTURE OF S-KETAMINE AND R-KETAMINE” (priority 2017, published 2019).

The structures appear in SMILES notation.

A short description of the test: Series of studies of intranasal racemic ketamine liquid formulation for acute and/or breakthrough pain. The conditions noted are these: liquid formulation at 30 mg to 50 mg, Intranasal (IN) route.

In the case of `CNC1(c2ccccc2Cl)CCCCC1=O` (racemic) [racemic ketamine, 2-(2-chlorophenyl)-2-(methylamino)-cyclohexanone], the “ability to stop acute and/or breakthrough pain” value is listed as “has shown the ability of IN racemic ketamine to stop acute and/or breakthrough pain”.
